According to PubChem BioAssay AID2555 (Johns Hopkins Ion Channel Center, 2010):
This is a selection; strong and weak results do not stand in their true shares. Some tests of the compounds listed are not included; inactive here does not mean inactive elsewhere. Calls of active or inactive are those of the source.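 The calls were made as follows: active = primary screen hit whose calcium fluorescence ratio, in both repeats, exceeds the weak agonist control mean by 3 SD; inactive = the rest.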

tested on: TRPC4 beta (transient receptor potential cation channel C4), mouse; assay: potentiation of DAMGO EC20 TRPC4 response – cell-based, Fluo-4, HEK293 TRPC4beta/mu-opioid, confirmation (AID 2555); settings: DAMGO EC20, Fluo-4 calcium flux, at 10 µM

SMILES | outcome
CN(C)c1ccc(C(=O)NCC2(N(C)C)CCCCC2)cc1 | inactive
